Measurements as given in ChEMBL document CHEMBL3751755, “Developing steroidal aromatase inhibitors-an effective armament to win the battle against breast cancer” (Eur J Med Chem, 2015).

Amino acid sequences for entries named in this document (tags omitted). A change or cut given only in a name is not applied to a line headed by its entry.
UniProt P11511: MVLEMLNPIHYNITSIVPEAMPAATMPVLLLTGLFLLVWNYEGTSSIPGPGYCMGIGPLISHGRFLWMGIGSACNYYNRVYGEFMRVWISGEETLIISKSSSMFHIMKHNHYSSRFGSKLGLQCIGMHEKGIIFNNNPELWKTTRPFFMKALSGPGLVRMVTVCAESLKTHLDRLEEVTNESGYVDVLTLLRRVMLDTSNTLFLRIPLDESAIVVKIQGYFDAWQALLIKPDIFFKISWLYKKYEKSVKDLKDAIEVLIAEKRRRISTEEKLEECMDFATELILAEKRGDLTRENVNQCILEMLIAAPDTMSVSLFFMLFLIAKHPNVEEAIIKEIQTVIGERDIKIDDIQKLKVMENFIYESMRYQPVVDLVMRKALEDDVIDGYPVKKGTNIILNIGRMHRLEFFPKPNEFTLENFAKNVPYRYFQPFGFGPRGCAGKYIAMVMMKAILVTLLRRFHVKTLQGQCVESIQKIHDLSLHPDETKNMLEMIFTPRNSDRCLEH

Key:
Aromatase [1] = target: T1, Aromatase (Homo sapiens, UniProt P11511); test: Inhibition of human aromatase extracted from placental microsomes using [1beta-3H]androstenedione as substrate after 20 mins
Aromatase [2] = target: T1, Aromatase

`C[C@]12CCCC=C1CC[C@@H]1[C@@H]2CC[C@]2(C)C(=O)CC[C@@H]12` was tested. Which IC50 (Aromatase [1]) did it give?
The IC50 was 130 nM.

How did the Ki (Aromatase [2]) turn out when `C[C@]12CCCC=C1[C@@H](O)C[C@@H]1[C@@H]2CC[C@]2(C)C(=O)CC[C@@H]12` was run?
Its Ki is 12 nM.
